This is an account of results in patent US20100184672A1.

For the test, the target named is GPIb on human platelets (human) (UniProt P07359). Put plainly: cell-based or functional assay.

Substance “thrombin (from UniProt P00734 328-622) (enzyme)” had a Platelet interaction (cells/mm^2/sec), no suspension treatment (cells/mm^2/sec) of 226 and a Platelet interaction (cells/mm^2/sec), with 6D1 in suspension (cells/mm^2/sec) of 58.5.
